From US12458982B2, “Devices, systems, and methods of use thereof for magnetic separation” (GEORGIA TECH RESEARCH CORPORATION, priority 2021, dated 2025)

Settings: 6x-histadine tagged PGA immobilized on 90 μm Ni-NTA magnetic agarose particles, 32 mg PGA/mL bead

penicillin G acylase [PGA]
PGA activity: 17.2 U/mg PGA
